Data taken from patent publication US20080064679A1, “Water Soluble Cannabinoids” (priority 2004, published 2008).
Read-outs that look alike come from different tables or passages of the source.

Sequences of proteins named here, by UniProt entry; tags and fusion partners are left off.
UniProt P34972, whole entry: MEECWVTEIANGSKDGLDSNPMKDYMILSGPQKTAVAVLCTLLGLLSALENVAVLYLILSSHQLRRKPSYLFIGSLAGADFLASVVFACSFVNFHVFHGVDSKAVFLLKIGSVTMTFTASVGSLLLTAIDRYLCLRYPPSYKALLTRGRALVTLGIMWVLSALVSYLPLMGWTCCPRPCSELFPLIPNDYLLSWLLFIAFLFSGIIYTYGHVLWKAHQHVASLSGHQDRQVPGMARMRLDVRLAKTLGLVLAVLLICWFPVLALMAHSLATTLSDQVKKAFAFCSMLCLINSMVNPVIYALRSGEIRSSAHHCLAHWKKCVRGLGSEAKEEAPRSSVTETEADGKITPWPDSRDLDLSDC
UniProt P21554, whole entry: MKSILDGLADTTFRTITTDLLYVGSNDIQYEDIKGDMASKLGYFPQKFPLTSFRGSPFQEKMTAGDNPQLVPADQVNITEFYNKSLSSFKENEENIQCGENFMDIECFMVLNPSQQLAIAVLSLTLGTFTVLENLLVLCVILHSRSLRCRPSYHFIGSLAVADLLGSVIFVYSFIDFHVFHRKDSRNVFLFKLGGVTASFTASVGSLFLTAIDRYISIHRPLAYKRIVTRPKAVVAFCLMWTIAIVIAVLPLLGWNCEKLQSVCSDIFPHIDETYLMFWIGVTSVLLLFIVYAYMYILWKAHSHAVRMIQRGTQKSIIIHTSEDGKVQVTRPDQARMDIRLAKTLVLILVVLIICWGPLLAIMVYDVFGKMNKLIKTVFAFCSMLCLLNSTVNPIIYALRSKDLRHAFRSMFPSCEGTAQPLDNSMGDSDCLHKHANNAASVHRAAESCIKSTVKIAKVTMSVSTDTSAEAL

Key:
human CB2 receptor = human CB2 receptor (Homo sapiens, UniProt P34972); experiment: CB2 receptor binding, [3H]CP55,940 displacement in membranes of transfected cells; details: read-out: CB2 Ki, Tables 2b, 3b, 4a, mean±SEM
mice [1] = experiment: Rectal temperature (R.T.), mouse tetrad; assay type: in vivo; details: for R.T. ED50 (lowering rectal temperature): i.v.; for ED50 after i.v. administration, rectal temperature: figure legends, saline
mice [2] = experiment: Spontaneous activity (S.A.), mouse tetrad; assay type: in vivo; details: for S.A. ED50 (reducing spontaneous activity): i.v.; for ED50 after i.v. administration, spontaneous activity: figure legends, saline
mice [3] = experiment: Tail-flick antinociception (T.F.), mouse tetrad; assay type: in vivo; details: for T.F. ED50 (antinociception in the tail-flick procedure): i.v.; for ED50 after i.v. administration, tail-flick response: figure legends, saline
mice [4] = experiment: Relative immobility (R.I.), ring-immobility test, mouse tetrad; assay type: in vivo; details: for R.I. ED50 (relative immobility): i.v.; for ED50 after i.v. administration, relative immobility: figure legends, saline
[5] = 1 mg of analog in 1 ml of water, visual observation
human CB1 receptor [6] = target: T1, human CB1 receptor (Homo sapiens, UniProt P21554); experiment: CB1 receptor binding, [3H]CP55,940 displacement in membranes of transfected cells; details: for Ki: read-out: CB1 Ki, Tables 2b, 3b, 4a, mean±SEM
human CB1 receptor [7] = target: T1, human CB1 receptor; experiment: [35S]GTPγS binding assay in membranes of CB1 expressing cells; assay type: biochemical; details: for CB1 % CP Stim: maximal GTPγS binding as percentage of stimulation produced by CP 55,940; for EC50: read-out: CB1 EC50, [35S]GTPγS binding, mean±SEM
mice [8] = experiment: Tetrad model, all four behavioral measures together (time course, oral and i.c.v. administration); assay type: in vivo, mouse; details: for Potency following oral administration (four tests): 30 minutes before the start of testing; for Activity in the behavioral tests after i.c.v. injection: analogs dissolved in water, THC in emulphor:ethanol:saline, Table 5 not given; for Time course of effects after i.v. administration: saline
[9] = vehicle saline, tested form: HCl
[10] = vehicle E:E:S (1:1:18), tested form: HCl
[11] = vehicle E:E:S (1:1:18), tested form: iodide
[12] = vehicle saline, tested form: iodide
[13] = vehicle saline, tested form: 2HCl
[14] = vehicle E:E:S (1:1:18), tested form: hydrochloride
[15] = vehicle saline, tested form: hydrochloride
[16] = vehicle saline, tested form: dihydrochloride

CC1=CC[C@@H]2[C@@H](C1)c1c(OC(=O)CCCN(C)C)cc(C(C)(C)CCCCC#N)cc1OC2(C)C
Ki (human CB2 receptor; tested form: HCl): 0.23 nM
R.T. ED50 (lowering rectal temperature) (mice [1]; [9]): 0.35 µmol/kg
S.A. ED50 (reducing spontaneous activity) (mice [2]; [9]): 0.07 µmol/kg
T.F. ED50 (antinociception in the tail-flick procedure) (mice [3]; [9]): 0.09 µmol/kg
R.I. ED50 (relative immobility) (mice [4]; [9]): 0.16 µmol/kg
Solubility (water-soluble) ([5]; tested form: HCl): Yes
Ki (human CB1 receptor [6]; tested form: HCl): 2.61 nM
CB1 % CP Stim (human CB1 receptor [7]; tested form: HCl): 126 ± 11.3%
EC50 (human CB1 receptor [7]; tested form: HCl): 16.9 nM

CC1=CC[C@@H]2[C@@H](C1)c1c(OC(=O)C(C)CCN(C)C)cc(C(C)(C)CCCCC#N)cc1OC2(C)C (stereo partly drawn)
Ki (human CB2 receptor; tested form: HCl): 0.44 nM
R.T. ED50 (lowering rectal temperature) (mice [1]; [10]): 0.40 µmol/kg
S.A. ED50 (reducing spontaneous activity) (mice [2]; [10]): 0.40 µmol/kg
T.F. ED50 (antinociception in the tail-flick procedure) (mice [3]; [10]): 0.26 µmol/kg
R.I. ED50 (relative immobility) (mice [4]; [10]): 0.59 µmol/kg
Solubility (water-soluble) ([5]; tested form: HCl): Yes
Ki (human CB1 receptor [6]; tested form: HCl): 5.89 nM
CB1 % CP Stim (human CB1 receptor [7]; tested form: HCl): 119 ± 12.2%
EC50 (human CB1 receptor [7]; tested form: HCl): 16.1 nM

CC1=CC[C@@H]2[C@@H](C1)c1c(OC(=O)CCCN3CCCCC3C)cc(C(C)(C)CCCCC#N)cc1OC2(C)C (stereo partly drawn)
Ki (human CB2 receptor; tested form: HCl): 0.7 nM
ED50 after i.v. administration, rectal temperature (mice [1]; tested form: HCl): 0.10 µmol/kg
R.T. ED50 (lowering rectal temperature) (mice [1]; [9]): 0.10 µmol/kg
Potency following oral administration (four tests) (mice [8]; 1 mg/kg, tested form: HCl): effective in all four tests
ED50 after i.v. administration, spontaneous activity (mice [2]; tested form: HCl): 0.05 µmol/kg
S.A. ED50 (reducing spontaneous activity) (mice [2]; [9]): 0.05 µmol/kg
ED50 after i.v. administration, tail-flick response (mice [3]; tested form: HCl): 0.04 µmol/kg
T.F. ED50 (antinociception in the tail-flick procedure) (mice [3]; [9]): 0.04 µmol/kg
ED50 after i.v. administration, relative immobility (mice [4]; tested form: HCl): 0.11 µmol/kg
R.I. ED50 (relative immobility) (mice [4]; [9]): 0.11 µmol/kg
Solubility (water-soluble) ([5]; tested form: HCl): Yes
Ki (human CB1 receptor [6]; tested form: HCl): 2.63 nM
CB1 % CP Stim (human CB1 receptor [7]; tested form: HCl): 77.0 ± 5.87%
EC50 (human CB1 receptor [7]; tested form: HCl): 22.1 nM

CC1=CC[C@@H]2[C@@H](C1)c1c(OC(=O)CCC[N+](C)(C)C)cc(C(C)(C)CCCCC#N)cc1OC2(C)C
Ki (human CB2 receptor; tested form: iodide): 0.35 nM
R.T. ED50 (lowering rectal temperature) (mice [1]; [11]): 0.09 µmol/kg
S.A. ED50 (reducing spontaneous activity) (mice [2]; [11]): 0.02 µmol/kg
T.F. ED50 (antinociception in the tail-flick procedure) (mice [3]; [11]): 0.05 µmol/kg
R.I. ED50 (relative immobility) (mice [4]; [11]): 0.08 µmol/kg
Solubility (water-soluble) ([5]; tested form: iodide): Yes
Ki (human CB1 receptor [6]; tested form: iodide): 14.7 nM
CB1 % CP Stim (human CB1 receptor [7]; tested form: iodide): 112 ± 1.18%
EC50 (human CB1 receptor [7]; tested form: iodide): 60.2 nM

CC1=CC[C@@H]2[C@@H](C1)c1c(OC(=O)C(C)CC[N+](C)(C)C)cc(C(C)(C)CCCCC#N)cc1OC2(C)C (stereo partly drawn)
Ki (human CB2 receptor; tested form: iodide): 7.4 nM
R.T. ED50 (lowering rectal temperature) (mice [1]; [12]): 3.82 µmol/kg
T.F. ED50 (antinociception in the tail-flick procedure) (mice [3]; [12]): 1.99 µmol/kg
R.I. ED50 (relative immobility) (mice [4]; [12]): 14.81 µmol/kg
Solubility (water-soluble) ([5]; tested form: iodide): Yes
Ki (human CB1 receptor [6]; tested form: iodide): 45.4 nM
CB1 % CP Stim (human CB1 receptor [7]; tested form: iodide): 113 ± 4.65%
EC50 (human CB1 receptor [7]; tested form: iodide): 138 nM

CC1=CC[C@@H]2[C@@H](C1)c1c(OC(=O)CCCN3CCN(C)CC3)cc(C(C)(C)CCCCC#N)cc1OC2(C)C
Ki (human CB2 receptor; tested form: 2HCl): 0.78 nM
R.T. ED50 (lowering rectal temperature) (mice [1]; [13]): 0.09 µmol/kg
Activity in the behavioral tests after i.c.v. injection (mice [8]; tested form: 2HCl): potency similar to that of O-1057 with the exception of a low ability to reduce body temperature
S.A. ED50 (reducing spontaneous activity) (mice [2]; [13]): 0.03 µmol/kg
T.F. ED50 (antinociception in the tail-flick procedure) (mice [3]; [13]): 0.04 µmol/kg
R.I. ED50 (relative immobility) (mice [4]; [13]): 0.09 µmol/kg
Solubility (water-soluble) ([5]; tested form: 2HCl): Yes
Ki (human CB1 receptor [6]; tested form: 2HCl): 2.01 nM
CB1 % CP Stim (human CB1 receptor [7]; tested form: 2HCl): 82.0 ± 5.84%
EC50 (human CB1 receptor [7]; tested form: 2HCl): 15.9 nM

CC1=CC[C@@H]2[C@@H](C1)c1c(OC(=O)CCCN3CCOCC3)cc(C(C)(C)CCCCC#N)cc1OC2(C)C
R.T. ED50 (lowering rectal temperature) (mice [1]; [14]): 0.10 µmol/kg
Activity in the behavioral tests after i.c.v. injection (mice [8]; tested form: hydrochloride): active in all behavioral tests, albeit with considerable differences in potency between tests
S.A. ED50 (reducing spontaneous activity) (mice [2]; [14]): 0.03 µmol/kg
T.F. ED50 (antinociception in the tail-flick procedure) (mice [3]; [14]): 0.03 µmol/kg
Solubility (water-soluble) ([5]; tested form: hydrochloride): Yes
Ki (human CB1 receptor [6]; tested form: hydrochloride): 15.3 nM

CC1=CC[C@@H]2[C@@H](C1)c1c(OC(=O)C(C)CCN3CCCCC3C)cc(C(C)(C)CCCCC#N)cc1OC2(C)C (stereo partly drawn)
Ki (human CB2 receptor; tested form: HCl): 0.34 nM
R.T. ED50 (lowering rectal temperature) (mice [1]; [9]): 2.76 µmol/kg
Time course of effects after i.v. administration (mice [8]; FIG. 8, 1 mg/kg (1.6 μmoles/kg) i.v., tested form: HCl): analgesic and relative immobility effects of O-2486 were still present at two hours but not sedation and hypothermia
Potency following oral administration (four tests) (mice [8]; 10 mg/kg, tested form: HCl): highly effective in all four pharmacological measures
S.A. ED50 (reducing spontaneous activity) (mice [2]; [9]): 0.07 µmol/kg
T.F. ED50 (antinociception in the tail-flick procedure) (mice [3]; [9]): 0.33 µmol/kg
R.I. ED50 (relative immobility) (mice [4]; [9]): 0.94 µmol/kg
Solubility (water-soluble) ([5]; tested form: HCl): Yes
Ki (human CB1 receptor [6]; tested form: HCl): 11.3 nM
CB1 % CP Stim (human CB1 receptor [7]; tested form: HCl): 81.3 ± 17.9%
EC50 (human CB1 receptor [7]; tested form: HCl): 36.8 nM

CC1=CC[C@@H]2[C@@H](C1)c1c(OC(=O)C(C)CCN(C(C)C)C(C)C)cc(C(C)(C)CCCCC#N)cc1OC2(C)C (stereo partly drawn)
Ki (human CB2 receptor; tested form: hydrochloride): 1.99 nM
ED50 after i.v. administration, rectal temperature (mice [1]; tested form: hydrochloride): 1.9 µmol/kg
R.T. ED50 (lowering rectal temperature) (mice [1]; [15]): 1.90 µmol/kg
Time course of effects after i.v. administration (mice [8]; FIG. 9, 3 mg/kg (5 μmoles/kg) i.v., tested form: hydrochloride): At four hours, antinociception is present when almost all other effects have dissipated
Potency following oral administration (four tests) (mice [8]; 10 mg/kg, tested form: hydrochloride): active in all measures
ED50 after i.v. administration, spontaneous activity (mice [2]; tested form: hydrochloride): 0.45 µmol/kg
S.A. ED50 (reducing spontaneous activity) (mice [2]; [15]): 0.45 µmol/kg
ED50 after i.v. administration, tail-flick response (mice [3]; tested form: hydrochloride): 1.0 µmol/kg
T.F. ED50 (antinociception in the tail-flick procedure) (mice [3]; [15]): 1.00 µmol/kg
ED50 after i.v. administration, relative immobility (mice [4]; tested form: hydrochloride): 1.9 µmol/kg
R.I. ED50 (relative immobility) (mice [4]; [15]): 1.92 µmol/kg
Solubility (water-soluble) ([5]; tested form: hydrochloride): Yes
Ki (human CB1 receptor [6]; tested form: hydrochloride): 81.7 nM
Change of CB1 receptor binding with the alpha methyl addition (versus O-2382) (human CB1 receptor [6]; tested form: hydrochloride): 15 fold

CC1=CC[C@@H]2[C@@H](C1)c1c(OC(=O)C(C)CCN3CCN(C)CC3)cc(C(C)(C)CCCCC#N)cc1OC2(C)C (stereo partly drawn)
Ki (human CB2 receptor; tested form: dihydrochloride): 1.56 nM
R.T. ED50 (lowering rectal temperature) (mice [1]; [16]): 0.40 µmol/kg
S.A. ED50 (reducing spontaneous activity) (mice [2]; [16]): 0.23 µmol/kg
T.F. ED50 (antinociception in the tail-flick procedure) (mice [3]; [16]): 0.17 µmol/kg
R.I. ED50 (relative immobility) (mice [4]; [16]): 0.22 µmol/kg
Solubility (water-soluble) ([5]; tested form: dihydrochloride): Yes
Ki (human CB1 receptor [6]; tested form: dihydrochloride): 6.71 nM
CB1 % CP Stim (human CB1 receptor [7]; tested form: dihydrochloride): 97.9 ± 10.4%
EC50 (human CB1 receptor [7]; tested form: dihydrochloride): 15.6 nM

CC1=CC[C@@H]2[C@@H](C1)c1c(OC(=O)CCCN3CCCCC3)cc(C(C)(C)CCCCC#N)cc1OC2(C)C
Ki (human CB2 receptor; tested form: hydrochloride): 0.2 nM
R.T. ED50 (lowering rectal temperature) (mice [1]; [15]): 0.03 µmol/kg
S.A. ED50 (reducing spontaneous activity) (mice [2]; [15]): 0.02 µmol/kg
T.F. ED50 (antinociception in the tail-flick procedure) (mice [3]; [15]): 0.07 µmol/kg
R.I. ED50 (relative immobility) (mice [4]; [15]): 0.10 µmol/kg
Solubility (water-soluble) ([5]; tested form: hydrochloride): Yes
Ki (human CB1 receptor [6]; tested form: hydrochloride): 2.73 nM
CB1 % CP Stim (human CB1 receptor [7]; tested form: hydrochloride): 93 ± 0.68%
EC50 (human CB1 receptor [7]; tested form: hydrochloride): 8.43 nM

CC1=CC[C@@H]2[C@@H](C1)c1c(OC(=O)CCCN(C(C)C)C(C)C)cc(C(C)(C)CCCCC#N)cc1OC2(C)C
Ki (human CB2 receptor; tested form: HCl): 1.98 nM
R.T. ED50 (lowering rectal temperature) (mice [1]; [9]): 0.85 µmol/kg
S.A. ED50 (reducing spontaneous activity) (mice [2]; [9]): 0.04 µmol/kg
T.F. ED50 (antinociception in the tail-flick procedure) (mice [3]; [9]): 0.05 µmol/kg
R.I. ED50 (relative immobility) (mice [4]; [9]): 0.06 µmol/kg
Solubility (water-soluble) ([5]; tested form: HCl): Yes
Ki (human CB1 receptor [6]; tested form: HCl): 5.59 nM
CB1 % CP Stim (human CB1 receptor [7]; tested form: HCl): 77.6 ± 5.58%
EC50 (human CB1 receptor [7]; tested form: HCl): 17.9 nM
